# Molecular target: PKD1L3/PKD2L1 (Mus musculus, UniProt A2A259+Q2EG98, I1053S/I114V/I482V/L203V/Q202H/Y438D)
# Chains of the proteins cited; added tags and fusions are not shown. Lines headed by an entry give the natural chain unless they say otherwise; changes in a name come on top.
# UniProt A2A259: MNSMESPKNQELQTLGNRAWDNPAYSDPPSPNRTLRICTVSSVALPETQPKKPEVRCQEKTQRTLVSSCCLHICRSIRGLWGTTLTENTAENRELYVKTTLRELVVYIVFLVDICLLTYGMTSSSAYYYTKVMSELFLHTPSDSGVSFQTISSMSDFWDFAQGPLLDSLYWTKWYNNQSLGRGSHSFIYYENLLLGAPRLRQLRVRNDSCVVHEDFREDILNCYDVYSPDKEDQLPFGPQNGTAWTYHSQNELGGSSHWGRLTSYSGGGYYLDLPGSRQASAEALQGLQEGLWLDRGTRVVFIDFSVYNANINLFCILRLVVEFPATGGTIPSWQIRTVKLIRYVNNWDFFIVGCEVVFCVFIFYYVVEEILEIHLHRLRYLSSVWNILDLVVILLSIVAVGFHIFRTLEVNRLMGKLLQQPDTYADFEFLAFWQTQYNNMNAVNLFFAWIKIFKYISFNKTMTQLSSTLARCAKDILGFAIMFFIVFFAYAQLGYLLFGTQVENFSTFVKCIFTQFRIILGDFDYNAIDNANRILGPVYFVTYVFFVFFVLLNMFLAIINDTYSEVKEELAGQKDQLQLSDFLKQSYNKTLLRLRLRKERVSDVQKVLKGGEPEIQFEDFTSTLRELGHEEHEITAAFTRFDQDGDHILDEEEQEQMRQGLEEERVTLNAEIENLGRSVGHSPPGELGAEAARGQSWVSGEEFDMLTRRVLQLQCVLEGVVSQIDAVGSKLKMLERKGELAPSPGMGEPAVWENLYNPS
# UniProt Q2EG98: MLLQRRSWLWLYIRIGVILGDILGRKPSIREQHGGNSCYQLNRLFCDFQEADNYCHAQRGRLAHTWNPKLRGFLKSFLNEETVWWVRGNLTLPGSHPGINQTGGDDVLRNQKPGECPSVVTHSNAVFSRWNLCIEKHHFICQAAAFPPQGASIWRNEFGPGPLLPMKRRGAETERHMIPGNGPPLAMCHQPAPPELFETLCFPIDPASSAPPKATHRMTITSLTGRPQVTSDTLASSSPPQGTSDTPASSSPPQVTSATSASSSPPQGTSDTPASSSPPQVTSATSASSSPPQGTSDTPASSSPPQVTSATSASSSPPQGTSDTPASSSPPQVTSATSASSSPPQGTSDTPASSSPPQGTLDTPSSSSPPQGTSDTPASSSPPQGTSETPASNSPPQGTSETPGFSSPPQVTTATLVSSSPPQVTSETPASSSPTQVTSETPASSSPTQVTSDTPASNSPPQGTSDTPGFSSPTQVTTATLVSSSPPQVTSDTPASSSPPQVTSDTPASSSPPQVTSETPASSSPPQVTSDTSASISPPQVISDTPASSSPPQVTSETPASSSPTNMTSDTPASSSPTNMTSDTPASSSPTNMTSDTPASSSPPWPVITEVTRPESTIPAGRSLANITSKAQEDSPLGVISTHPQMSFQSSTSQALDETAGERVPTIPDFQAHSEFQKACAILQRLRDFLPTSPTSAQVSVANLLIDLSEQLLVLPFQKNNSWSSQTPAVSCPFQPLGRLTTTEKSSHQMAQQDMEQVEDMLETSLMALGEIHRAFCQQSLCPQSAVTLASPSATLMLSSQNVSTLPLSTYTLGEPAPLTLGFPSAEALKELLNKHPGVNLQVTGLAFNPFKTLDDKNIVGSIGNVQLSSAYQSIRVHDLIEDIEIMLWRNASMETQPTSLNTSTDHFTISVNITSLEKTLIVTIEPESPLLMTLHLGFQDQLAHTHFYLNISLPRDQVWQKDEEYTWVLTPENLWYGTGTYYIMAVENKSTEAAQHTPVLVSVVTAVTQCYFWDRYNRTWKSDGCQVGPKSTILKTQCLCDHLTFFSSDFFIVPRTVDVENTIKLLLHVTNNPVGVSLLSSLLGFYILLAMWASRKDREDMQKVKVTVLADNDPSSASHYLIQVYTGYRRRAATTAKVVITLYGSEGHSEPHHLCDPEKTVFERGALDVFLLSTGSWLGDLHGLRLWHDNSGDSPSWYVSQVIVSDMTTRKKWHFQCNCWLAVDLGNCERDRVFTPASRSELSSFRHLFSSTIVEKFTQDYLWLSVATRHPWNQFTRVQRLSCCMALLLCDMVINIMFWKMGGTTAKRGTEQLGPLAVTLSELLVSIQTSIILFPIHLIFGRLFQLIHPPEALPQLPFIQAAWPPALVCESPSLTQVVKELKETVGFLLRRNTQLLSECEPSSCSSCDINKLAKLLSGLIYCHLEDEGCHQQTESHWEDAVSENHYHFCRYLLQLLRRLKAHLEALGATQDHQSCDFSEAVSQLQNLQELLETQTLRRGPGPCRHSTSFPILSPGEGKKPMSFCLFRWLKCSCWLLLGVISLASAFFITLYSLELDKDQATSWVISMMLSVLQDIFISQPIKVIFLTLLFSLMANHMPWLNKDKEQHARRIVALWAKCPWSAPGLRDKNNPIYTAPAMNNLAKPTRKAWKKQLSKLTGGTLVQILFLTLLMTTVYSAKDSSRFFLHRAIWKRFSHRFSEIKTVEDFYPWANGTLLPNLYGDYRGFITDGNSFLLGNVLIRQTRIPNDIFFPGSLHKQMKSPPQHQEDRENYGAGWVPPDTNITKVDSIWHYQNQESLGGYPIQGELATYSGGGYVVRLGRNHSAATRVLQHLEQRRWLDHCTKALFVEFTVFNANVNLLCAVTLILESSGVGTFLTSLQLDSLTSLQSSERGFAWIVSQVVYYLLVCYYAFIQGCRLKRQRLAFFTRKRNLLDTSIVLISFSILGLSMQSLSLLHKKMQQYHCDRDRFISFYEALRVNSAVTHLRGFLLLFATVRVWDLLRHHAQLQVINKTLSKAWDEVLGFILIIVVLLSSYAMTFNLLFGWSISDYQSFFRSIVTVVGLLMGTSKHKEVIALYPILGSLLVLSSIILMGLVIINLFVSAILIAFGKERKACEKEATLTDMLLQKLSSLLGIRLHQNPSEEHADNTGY
# Test: Calcium imaging (fluo-4/fura-red) of HEK293T cells transiently co-expressing PKD1L3 and PKD2L1
# Format: cell-based, murine
# Details: cells expressing both PKD1L3 and PKD2L1; citric acid 25 mM, pH 2.6; hydrochloric acid at the same pH
substance,measurement,value
I-glutamate,calcium response upon stimulation,did not respond

# Source: patent US8512965B2, “Methods of identifying ligands to sour-taste receptors comprising PKD1L3 and PKDPKD2L1” (Duke University, priority 2006, dated 2013)
